US10442819B2, “Tricyclic compounds as inhibitors of mutant IDH enzymes” (Merck Sharp & Dohme Corp., priority 2014, dated 2019)

Amino acid sequences for entries named in this document (tags omitted).
UniProt O75874, whole entry R132H: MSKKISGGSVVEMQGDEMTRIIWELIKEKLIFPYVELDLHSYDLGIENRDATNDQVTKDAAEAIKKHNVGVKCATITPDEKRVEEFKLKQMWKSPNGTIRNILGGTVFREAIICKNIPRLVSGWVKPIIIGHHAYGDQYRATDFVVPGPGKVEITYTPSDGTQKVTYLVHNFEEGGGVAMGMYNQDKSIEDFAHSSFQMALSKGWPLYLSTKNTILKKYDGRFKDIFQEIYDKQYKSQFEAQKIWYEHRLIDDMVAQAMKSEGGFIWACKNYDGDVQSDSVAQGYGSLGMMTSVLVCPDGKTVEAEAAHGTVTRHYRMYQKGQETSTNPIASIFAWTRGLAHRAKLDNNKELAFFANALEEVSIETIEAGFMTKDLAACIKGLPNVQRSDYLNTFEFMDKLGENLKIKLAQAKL

Biological target: R132H mutant IDH1 enzyme (Homo sapiens (Human), UniProt O75874, R132H)
Assay: R132H IDH1 Enzymatic Assay
Assay type: biochemical
Details: R132H mutant IDH1 enzyme 1.5 nM final; luminescence readout; read-out: IC50

Row | IC50 [nM] | Compound
1 | 9 | CC(C)O[C@H]1CC[C@H](C(=O)N2Cc3cccnc3Nc3ccc(C4=CCOCC4)cc32)OC1 [Example 22, (8-(3,6-dihydro-2H-pyran-4-yl)-5,11-dihydro-6H-benzo[b]pyrido[2,3-e][1,4]diazepin-6-yl)((2R,5S)-5-isopropoxytetrahydro-2H-pyran-2-yl)methanone]
2 | 130 | COCCN(C)c1ccc2c(c1)N(C(=O)[C@H]1CC[C@@H](OC)CC1)Cc1cccnc1N2 [Example 237, 6-[(cis-4-methoxycyclohexyl)carbonyl]-N-(2-methoxyethyl)-N-methyl-6,11-dihydro-5H-pyrido[2,3-b][1,5]benzodiazepin-8-amine]
3 | 42 | CC(C)O[C@H]1CC[C@H](C(=O)N2Cc3cccnc3Nc3ccc(C4COCCO4)cc32)OC1 (single isomer, unassigned) [Example 12]
4 | 725 | COC1CN(c2ccc3c(c2)N(C(=O)[C@H]2CC[C@H](OC)CC2)Cc2cccnc2N3)C1 [Example 414, 8-(3-methoxyazetidin-1-yl)-6-[(trans-4-methoxycyclohexyl)carbonyl]-6,11-dihydro-5H-pyrido[2,3-b][1,5]benzodiazepine]
5 | 67 | CO[C@H]1CC[C@H](C(=O)N2Cc3cccnc3Nc3ccc(-c4ccc(C#N)n4C)cc32)CC1 [Example 353, 5-{6-[(trans-4-methoxycyclohexyl)carbonyl]-6,11-dihydro-5H-pyrido[2,3-b][1,5]benzodiazepin-8-yl}-1-methyl-1H-pyrrole-2-carbonitrile]
6 | 30 | CO[C@@H](C(C)C)[C@H]1CC[C@H](C(=O)N2Cc3cccnc3Nc3ccc(N4CCOCC4)cc32)CC1 [Example 118, 6-({trans-4-[(1S)-1-methoxy-2-methylpropyl]cyclohexyl}-carbonyl)-8-morpholin-4-yl-6,11-dihydro-5H-pyrido[2,3-b][1,5]benzodiazepine]
7 | 251 | CC(C(F)F)N1CCC(C(=O)N2Cc3cccnc3Nc3ccc(N4CCOCC4)cc32)CC1 (stereo not drawn) [Example 474, 6-{[1-(2,2-difluoro-1-methylethyl)piperidin-4-yl]carbonyl}-8-morpholin-4-yl-6,11-dihydro-5H-pyrido[2,3-b][1,5]benzodiazepine]
8 | 312 | CO[C@H]1CC[C@H](C(=O)N2Cc3cccnc3Nc3ccc(N4CC[C@@H](CF)C4)cc32)CC1 [Example 230, 8-[(3R)-3-(fluoromethyl)pyrrolidin-1-yl]-6-[(trans-4-methoxycyclohexyl)carbonyl]-6,11-dihydro-5H-pyrido[2,3-b][1,5]benzodiazepine]
9 | 120 | O=C([C@H]1CC[C@H](O[C@H]2CC2(F)F)CC1)N1Cc2cccnc2Nc2ccc(N3CCOCC3)cc21 [Example 102, 6-[(trans-4-{[(1S)-2,2-difluorocyclopropyl]oxy}-cyclohexyl)carbonyl]-8-morpholin-4-yl-6,11-dihydro-5H-pyrido[2,3-b][1,5]benzodiazepine]
10 | 6 | CC(C)O[C@H]1CC[C@H](C(=O)N2Cc3cccnc3Nc3ccc(C4=CCCOC4)cc32)OC1 [Example 23, (8-(5,6-dihydro-2H-pyran-3-yl)-5,11-dihydro-6H-benzo[b]pyrido[2,3-e][1,4]diazepin-6-yl)((2R,5S)-5-isopropoxytetrahydro-2H-pyran-2-yl)methanone]
11 | 112 | CC[C@H]1CC[C@H](C(=O)N2Cc3cccnc3Nc3ccccc32)CC1 [Example 62, 6-[(trans-4-ethylcyclohexyl)carbonyl]-6,11-dihydro-5H-pyrido[2,3-b][1,5]benzodiazepine]
12 | 185 | O=C([C@H]1CC[C@H](NC2(C(F)(F)F)CC2)C1)N1Cc2cccnc2Nc2ccc(N3CCOCC3)cc21 (stereo in doubt) [Example 478, (1S,3S)-3-[(8-morpholin-4-yl-5,11-dihydro-6H-pyrido[2,3-b][1,5]benzodiazepin-6-yl)carbonyl]-N-[1-(trifluoromethyl)cyclopropyl]-cyclopentanamine]
13 | 182 | CO[C@H]1CC[C@H](C(=O)N2Cc3cccnc3Nc3ccc(C(N4CCCC4)C(F)(F)F)cc32)CC1 (relative stereo) [Example 7, 6-[(Trans-4-methoxycyclohexyl)carbonyl]-8-(2,2,2-trifluoro-1-pyrrolidin-1-ylethyl)-6,11-dihydro-5H-pyrido[2,3-b][1,5]benzodiazepine]
14 | 150 | CO[C@H]1CC[C@H](C(=O)N2Cc3cccnc3Nc3ccc(N4CC[C@H](CF)C4)cc32)CC1 [Example 265, 8-[(3S)-3-(fluoromethyl)pyrrolidin-1-yl]-6-[(trans-4-methoxycyclohexyl)carbonyl]-6,11-dihydro-5H-pyrido[2,3-b][1,5]benzodiazepine]
15 | 79 | CCCO[C@H]1CC[C@H](C(=O)N2Cc3cccnc3Nc3ccc(N4C[C@H]5CC[C@@H]4CO5)cc32)CC1 [Example 315, 8-[(1R,4R)-2-oxa-5-azabicyclo[2.2.2]oct-5-yl]-6-[(trans-4-propoxycyclohexyl)carbonyl]-6,11-dihydro-5H-pyrido[2,3-b][1,5]benzodiazepine]
16 | 220 | C[C@H]1CC(F)(F)CC[C@@H]1C(=O)N1Cc2cccnc2Nc2ccc(N3CCC(F)(F)C3)cc21 [Example 197, 6-{[(1S,2S)-4,4-difluoro-2-methylcyclohexyl]carbonyl}-8-(3,3-difluoropyrrolidin-1-yl)-6,11-dihydro-5H-pyrido[2,3-b][1,5]benzodiazepine]
17 | 76 | C=CC(=O)N1CC2CCC1CN2c1ccc2c(c1)N(C(=O)C1CC(C)(C)C1)Cc1cccnc1N2 (stereo not drawn) [Example 497, 8-(5-acryloyl-2,5-diazabicyclo[2.2.2]oct-2-yl)-6-[(3,3-dimethylcyclobutyl)carbonyl]-6,11-dihydro-5H-pyrido[2,3-b][1,5]benzodiazepine]
18 | 29 | CC(C)O[C@H]1CC[C@H](C(=O)N2Cc3cccnc3Nc3ccc(C4OCCOC4C)cc32)OC1 (stereo partly drawn) [Example 34, ((2R,5S)-5-isopropoxytetrahydro-2H-pyran-2-yl)(8-(3-methyl-1,4-dioxan-2-yl)-5,11-dihydro-6H-benzo[b]pyrido[2,3-e][1,4]diazepin-6-yl)methanone]
19 | 33 | O=C([C@H]1CC[C@H](NC2(C(F)(F)F)CC2)CC1)N1Cc2cccnc2Nc2ccc(N3CCOCC3)cc21 [Example 453, trans-4-[(8-morpholin-4-yl-5,11-dihydro-6H-pyrido[2,3-b][1,5]benzodiazepin-6-yl)carbonyl]-N-[1-(trifluoromethyl)cyclopropyl]-cyclohexanamine]
20 | 38 | CC(C)O[C@H]1CC[C@H](C(=O)N2Cc3cccnc3Nc3ccc(C4CCCCO4)cc32)OC1 (stereo partly drawn) [Example 147, ((2R,5S)-5-isopropoxytetrahydro-2H-pyran-2-yl)(8-(tetrahydro-2H-pyran-2-yl)-5,11-dihydro-6H-benzo[b]pyrido[2,3-e][1,4]diazepin-6-yl)methanone]
21 | 44 | COC1CCC(C(=O)N2Cc3cccnc3Nc3ccc(CC4CCOCC4)cc32)CC1 (stereo not drawn) [Example 424, 6-[(4-methoxycyclohexyl)carbonyl]-8-(tetrahydro-2H-pyran-4-ylmethyl)-6,11-dihydro-5H-pyrido[2,3-b][1,5]benzodiazepine]
22 | 9 | CO/N=C1/CCC(c2ccc3c(c2)N(C(=O)C2CCC(OC(C)C)CC2)Cc2cccnc2N3)C1 (stereo not drawn) [Example 527, E and Z {8-[3-(Methoxyimino)cyclopentyl]-5,11-dihydro-6H-pyrido[2,3-b][1,5]benzodiazepin-6-yl}[trans-4-(propan-2-yloxy)cyclohexyl]methanone]
23 | 543 | CO[C@H]1CC[C@H](C(=O)N2Cc3cccnc3Nc3ccc(N4CCC4=O)cc32)CC1 [Example 495, 1-{6-[(trans-4-methoxycyclohexyl)carbonyl]-6,11-dihydro-5H-pyrido[2,3-b][1,5]benzodiazepin-8-yl}azetidin-2-one]
24 | 42 | C=CC(=O)N1C[C@@H]2CC[C@H]1CN2c1ccc2c(c1)N(C(=O)C1CC(C)(C)C1)Cc1cccnc1N2 [Example 498, 8-[(1S,4S)-5-acryloyl-2,5-diazabicyclo[2.2.2]oct-2-yl]-6-[(3,3-dimethylcyclobutyl)carbonyl]-6,11-dihydro-5H-pyrido[2,3-b][1,5]benzodiazepine]
25 | 342 | CO[C@H]1CC[C@H](C(=O)N2Cc3cccnc3Nc3ccc(N(C)C4COC4)cc32)CC1 [Example 247, 6-[(trans-4-methoxycyclohexyl)carbonyl]-N-methyl-N-oxetan-3-yl-6,11-dihydro-5H-pyrido[2,3-b][1,5]benzodiazepin-8-amine]
26 | 546 | CO[C@H]1CC[C@H](C(=O)N2Cc3cccnc3Nc3ccc(N4CCn5nc(C)nc5C4)cc32)CC1 [Example 272, 6-[(trans-4-methoxycyclohexyl)carbonyl]-8-(2-methyl-5,6-dihydro[1,2,4]triazolo[1,5-a]pyrazin-7(8H)-yl)-6,11-dihydro-5H-pyrido[2,3-b][1,5]benzodiazepine]
27 | 195 | COCCN(C)c1ccc2c(c1)N(C(=O)[C@H]1CC[C@H](OC)CC1)Cc1cccnc1N2 [Example 236, 6-[(trans-4-methoxycyclohexyl)carbonyl]-N-(2-methoxyethyl)-N-methyl-6,11-dihydro-5H-pyrido[2,3-b][1,5]benzodiazepin-8-amine]

Row | Compound | IC50 [nM]
28 | CC(C)(C)O[C@H]1CC[C@H](C(=O)N2Cc3cccnc3Nc3ccc(N4C5CO[C@H]6[C@@H]5OC[C@H]64)cc32)CC1 (stereo in doubt) [Example 325, 6-[(trans-4-tert-butoxycyclohexyl)carbonyl]-8-[(3R,3aR,6S,6aR)-hexahydro-3,6-epiminofuro[3,2-b]furan-7-yl]-6,11-dihydro-5H-pyrido[2,3-b][1,5]benzodiazepine] | 20
29 | CO[C@H]1C[C@H]2CC[C@@H](C1)N2c1ccc2c(c1)N(C(=O)[C@H]1CC[C@H](OC(C)C)CC1)Cc1cccnc1N2 [Example 302, 8-[(3-endo)-3-methoxy-8-azabicyclo[3.2.1]oct-8-yl]-6-{[trans-4-(1-methylethoxy)cyclohexyl]car-bonyl}-6,11-dihydro-5H-pyrido[2,3-b][1,5]benzodiazepine] | 46
30 | 4-{[8-(2,4-dioxan-2-yl)-5,11- dihydro-6H-pyrido[2,3- b][1,5]benzodiazepin-6- yl]carbonyl}cyclohexanone O-methyloxime [Example 393] | 98
